Target: T1, human FAP (hFAP) (Homo sapiens, UniProt Q12884)
T1 sequence (Q12884 26-760 limits assumed): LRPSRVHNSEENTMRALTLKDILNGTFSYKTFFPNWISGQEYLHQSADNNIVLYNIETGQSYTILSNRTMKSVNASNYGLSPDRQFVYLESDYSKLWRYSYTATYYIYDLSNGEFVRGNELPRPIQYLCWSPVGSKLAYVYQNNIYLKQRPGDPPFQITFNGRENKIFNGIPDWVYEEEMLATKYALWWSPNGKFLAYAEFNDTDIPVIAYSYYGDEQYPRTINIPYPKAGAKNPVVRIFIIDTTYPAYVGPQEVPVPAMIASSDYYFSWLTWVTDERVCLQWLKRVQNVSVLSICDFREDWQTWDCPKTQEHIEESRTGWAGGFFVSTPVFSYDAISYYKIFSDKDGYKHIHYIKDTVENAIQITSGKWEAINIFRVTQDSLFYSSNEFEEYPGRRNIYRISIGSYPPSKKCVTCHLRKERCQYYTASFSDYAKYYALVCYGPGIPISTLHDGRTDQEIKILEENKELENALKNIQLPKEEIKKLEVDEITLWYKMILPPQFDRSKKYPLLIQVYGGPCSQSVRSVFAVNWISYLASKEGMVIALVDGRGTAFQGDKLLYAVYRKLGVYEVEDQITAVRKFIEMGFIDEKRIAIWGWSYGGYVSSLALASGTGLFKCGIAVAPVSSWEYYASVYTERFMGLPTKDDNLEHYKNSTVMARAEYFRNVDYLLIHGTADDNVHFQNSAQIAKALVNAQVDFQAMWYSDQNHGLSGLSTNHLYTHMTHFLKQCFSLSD
Experiment: In vitro inhibition assay on human FAP (Z-GP-AMC substrate)
Assay type: biochemical
Settings: 20 μM Z-GP-AMC, 20 nM FAP, pH 7.4, room temperature
Description: Enzymatic activity of human FAP (hFAP) and mouse FAP (mFAP) on the Z-GP-AMC substrate was measured at room temperature on a Hidex microplate reader by monitoring the fluorescence at an excitation wavelength of 360 nm and an emission wavelength of 465 nm. The reaction mixture contained 20 μM substrate, 20 nM FAP, assay buffer (50 mM Tris, 100 mM NaCl, 1 mM EDTA, pH 7.4) and tested compound (serial dilution from 10-6 to 10^−12) in a total volume of 50 μL.

## N#C[C@@H]1CC(F)(F)CN1C(=O)CNC(=O)c1ccnc2c(OCCCNC(=O)CC(O)CNC(=O)CC(O)CNC(=S)Nc3ccc4c(c3)C(=O)OC43c4ccc(O)cc4Oc4cc(O)ccc43)cccc12 (stereo partly drawn) [eFAP-23, N-(2-((S)-2-cyano-4,4-difluoropyrrolidin-1-yl)-2-oxoethyl)-8-(3-(4-(4-(3-(3′,6′-dihydroxy-3-oxo-3H-spiro[isobenzofuran-1,9′-xanthen]-5-yl)thioureido)-3-hydroxybutanamido)-3-hydroxybutanamido)propoxy)quinoline-4-carboxamide]
  IC50: 2.1 ± 0.3 nM
